Literature values, collected in patent US9439898B2, “Methods for novel drug discovery, treatment and selective targeting for gefitinib-resistant non-small-cell lung cancer harboring T790M mutation” (Macau University of Science and Technology, priority 2014, dated 2016).

How the values were obtained:
Settings in all cases: cited from earlier work
HCC827(EGFR^L858R) = system: HCC827(EGFR^L858R)
H1975(EGFR^L858R+T790M) = system: H1975(EGFR^L858R+T790M)
A549 (EGFR^wild-type) = system: A549 (EGFR^wild-type)
[1] = system: H1650 (EGFR^Exon19 deletion)

SMILES: COc1cc2ncnc(Nc3ccc(F)c(Cl)c3)c2cc1OCCCN1CCOCC1 [Gefitinib]
- Gefitinib resistance (HCC827(EGFR^L858R)): sensitive
- Gefitinib resistance (H1975(EGFR^L858R+T790M)): resistance
- Gefitinib resistance (A549 (EGFR^wild-type)): resistance
- Gefitinib resistance [1]: resistance
